Target: Glycogen synthase kinase-3 beta (Homo sapiens, UniProt P49841)
Assay: Biochemical Assay
Conditions: pH 7.5
From the text: Fluorescence polarization-based kinase in vitro assay using human PI3K alpha purchased from Echelon Biosciences and p110 alpha/p85 alpha from Upstate follow by a Kinase Glo assay from Promega.

By UniProt entry, the sequences of proteins in these tests, tags left out. Where a name states a change or a piece, a line headed by the entry shows the natural chain unless it says otherwise.
UniProt P49841: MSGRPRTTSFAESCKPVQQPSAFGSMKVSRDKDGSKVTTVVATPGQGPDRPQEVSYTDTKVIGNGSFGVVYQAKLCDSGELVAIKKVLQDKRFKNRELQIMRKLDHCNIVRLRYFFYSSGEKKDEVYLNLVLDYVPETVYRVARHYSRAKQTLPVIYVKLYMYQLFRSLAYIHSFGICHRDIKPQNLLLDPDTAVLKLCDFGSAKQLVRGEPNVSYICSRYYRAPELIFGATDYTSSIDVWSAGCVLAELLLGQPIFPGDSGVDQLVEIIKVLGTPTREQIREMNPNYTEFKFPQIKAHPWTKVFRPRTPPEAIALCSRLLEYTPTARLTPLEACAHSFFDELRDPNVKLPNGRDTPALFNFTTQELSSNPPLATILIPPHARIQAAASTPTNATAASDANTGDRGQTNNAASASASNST

Compound	IC50
N#[C][Ru]1[n]2c3ccc(O)cc3c3c4c(c5ccc[n+]1c5c32)C(=O)NC4=O	1.4 nM
CN1C(=O)c2c(c3c4cc(O)ccc4[n]4c3c3c2ccc[n+]3[Ru]4[C]#N)C1=O	> 1000 nM
